# B1: RAC-alpha serine/threonine-protein kinase (Homo sapiens), P31749 (parent)
# chain: MSDVAIVKEGWLHKRGEYIKTWRPRYFLLKNDGTFIGYKERPQDVDQREAPLNNFSVAQCQLMKTERPRPNTFIIRCLQWTTVIERTFHVETPEEREEWTTAIQTVADGLKKQEEEEMDFRSGSPSDNSGAEEMEVSLAKPKHRVTMNEFEYLKLLGKGTFGKVILVKEKATGRYYAMKILKKEVIVAKDEVAHTLTENRVLQNSRHPFLTALKYSFQTHDRLCFVMEYANGGELFFHLSRERVFSEDRARFYGAEIVSALDYLHSEKNVVYRDLKLENLMLDKDGHIKITDFGLCKEGIKDGATMKTFCGTPEYLAPEVLEDNDYGRAVDWWGLGVVMYEMMCGRLPFYNQDHEKLFELILMEEIRFPRTLGPEAKSLLSGLLKKDPKQRLGGGSEDAKEIMQHRFFAGIVWQHVYEKKLSPPFKPQVTSETDTRYFDEEFTAQMITITPPDQDDSMECVDSERRPHFPQFSYSASGTA
# partner: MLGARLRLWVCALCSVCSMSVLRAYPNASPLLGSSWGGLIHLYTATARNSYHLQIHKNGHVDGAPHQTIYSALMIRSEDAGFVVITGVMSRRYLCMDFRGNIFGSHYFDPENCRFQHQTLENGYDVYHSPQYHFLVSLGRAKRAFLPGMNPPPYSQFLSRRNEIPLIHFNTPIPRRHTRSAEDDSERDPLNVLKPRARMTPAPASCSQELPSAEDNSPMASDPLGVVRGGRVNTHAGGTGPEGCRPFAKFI
# B2: RAC-alpha serine/threonine-protein kinase (Homo sapiens), P31749 (parent)
# chain: B1 chain
# partner: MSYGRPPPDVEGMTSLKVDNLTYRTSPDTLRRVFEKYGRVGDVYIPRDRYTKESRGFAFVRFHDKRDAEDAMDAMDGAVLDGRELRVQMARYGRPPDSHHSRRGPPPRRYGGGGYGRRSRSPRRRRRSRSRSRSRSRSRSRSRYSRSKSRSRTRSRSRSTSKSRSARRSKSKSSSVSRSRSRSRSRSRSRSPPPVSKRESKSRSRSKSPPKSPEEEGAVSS
# B3: RAC-alpha serine/threonine-protein kinase (Homo sapiens), P31749 (parent)
# chain: B1 chain
# partner: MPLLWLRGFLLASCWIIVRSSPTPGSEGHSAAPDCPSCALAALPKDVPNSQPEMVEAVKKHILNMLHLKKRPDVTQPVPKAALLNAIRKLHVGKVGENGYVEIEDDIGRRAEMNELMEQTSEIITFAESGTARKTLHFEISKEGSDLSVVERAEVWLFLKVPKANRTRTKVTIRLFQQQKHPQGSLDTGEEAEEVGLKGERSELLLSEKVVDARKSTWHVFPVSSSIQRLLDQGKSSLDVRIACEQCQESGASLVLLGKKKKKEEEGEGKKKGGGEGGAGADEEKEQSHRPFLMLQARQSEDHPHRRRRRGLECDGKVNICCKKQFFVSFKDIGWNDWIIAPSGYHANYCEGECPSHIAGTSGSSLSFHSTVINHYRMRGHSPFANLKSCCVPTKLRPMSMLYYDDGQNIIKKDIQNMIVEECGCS
# B4: RAC-alpha serine/threonine-protein kinase (Homo sapiens), P31749 (parent)
# chain: B1 chain
# partner: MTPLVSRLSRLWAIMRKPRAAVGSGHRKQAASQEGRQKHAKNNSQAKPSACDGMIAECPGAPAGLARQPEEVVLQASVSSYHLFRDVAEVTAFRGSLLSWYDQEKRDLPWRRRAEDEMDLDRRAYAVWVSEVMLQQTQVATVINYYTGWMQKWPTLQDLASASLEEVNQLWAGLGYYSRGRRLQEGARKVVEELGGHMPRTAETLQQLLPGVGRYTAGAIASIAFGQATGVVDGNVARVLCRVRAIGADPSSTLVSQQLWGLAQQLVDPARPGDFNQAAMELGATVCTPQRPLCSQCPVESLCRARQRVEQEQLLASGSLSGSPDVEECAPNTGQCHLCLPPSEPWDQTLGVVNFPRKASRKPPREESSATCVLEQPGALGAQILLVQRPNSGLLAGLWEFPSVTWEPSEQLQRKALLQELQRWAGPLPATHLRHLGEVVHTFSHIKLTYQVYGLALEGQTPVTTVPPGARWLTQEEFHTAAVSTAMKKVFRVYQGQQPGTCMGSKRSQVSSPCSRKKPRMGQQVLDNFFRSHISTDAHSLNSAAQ
# B5: RAC-alpha serine/threonine-protein kinase (Homo sapiens), P31749 (parent)
# chain: B1 chain
# partner: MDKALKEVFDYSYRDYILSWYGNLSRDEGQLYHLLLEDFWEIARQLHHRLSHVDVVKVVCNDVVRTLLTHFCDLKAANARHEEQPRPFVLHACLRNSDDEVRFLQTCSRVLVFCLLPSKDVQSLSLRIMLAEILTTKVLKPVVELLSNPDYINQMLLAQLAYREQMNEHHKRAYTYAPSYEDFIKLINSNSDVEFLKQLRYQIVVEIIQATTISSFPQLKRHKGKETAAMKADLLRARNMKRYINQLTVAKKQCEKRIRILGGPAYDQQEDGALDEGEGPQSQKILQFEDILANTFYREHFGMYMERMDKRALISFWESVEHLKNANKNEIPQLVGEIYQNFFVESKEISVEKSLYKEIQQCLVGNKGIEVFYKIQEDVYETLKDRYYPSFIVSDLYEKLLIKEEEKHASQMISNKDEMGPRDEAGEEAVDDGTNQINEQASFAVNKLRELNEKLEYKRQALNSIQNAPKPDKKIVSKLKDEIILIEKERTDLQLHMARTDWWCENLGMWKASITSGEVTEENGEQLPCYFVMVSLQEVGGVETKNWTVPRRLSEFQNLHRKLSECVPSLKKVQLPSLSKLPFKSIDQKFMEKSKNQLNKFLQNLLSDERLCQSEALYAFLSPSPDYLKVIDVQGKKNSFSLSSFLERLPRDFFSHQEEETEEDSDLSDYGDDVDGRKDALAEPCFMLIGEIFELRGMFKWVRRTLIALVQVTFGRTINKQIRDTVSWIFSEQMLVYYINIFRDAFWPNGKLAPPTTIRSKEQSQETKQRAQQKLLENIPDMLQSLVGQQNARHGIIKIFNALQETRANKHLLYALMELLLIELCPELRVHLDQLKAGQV
# Variants of: B1
# Details: with fgf23_human FGF23, Q9GZV9
row,effect of a mutation on the interaction,Variant
1,causing an interaction,E17K

# Variants of: B1
# Details: with fgf23_human FGF23, Q9GZV9
# Remark: another data set of the same source
row,effect of a mutation on the interaction,Variant
1,increasing interaction strength,E17K

# Variants of: B2
# Details: with srsf2_human SRSF2, Q01130
row,effect of a mutation on the interaction,Variant
1,causing an interaction,E17K

# Variants of: B3
# Details: with inhba_human INHBA
row,effect of a mutation on the interaction,Variant
1,causing an interaction,E17K

# Variants of: B3
# Details: with inhba_human INHBA
# Remark: another data set of the same source
row,effect of a mutation on the interaction,Variant
1,increasing interaction strength,E17K

# Variants of: B4
# Details: with mutyh_human MUTYH
row,effect of a mutation on the interaction,Variant
1,causing an interaction,E17K

# Variants of: B4
# Details: with mutyh_human MUTYH
# Remark: another data set of the same source
row,effect of a mutation on the interaction,Variant
1,increasing interaction strength,E17K

# Variants of: B5
# Details: with snx25_human SNX25, Q9H3E2
row,effect of a mutation on the interaction,Variant
1,causing an interaction,E17K
